Assay results as given in patent US20060205037A1, “Modified transferrin fusion proteins” (priority 2003, published 2006).
Like-named read-outs stand apart in the source and are kept apart here.

Target: T1, rat GLP-1 receptor (Rattus norvegicus, UniProt P32301)
T1 construct: expressed in transfected cells; host or cells: CHO cells
T1 sequence (P32301 22-463): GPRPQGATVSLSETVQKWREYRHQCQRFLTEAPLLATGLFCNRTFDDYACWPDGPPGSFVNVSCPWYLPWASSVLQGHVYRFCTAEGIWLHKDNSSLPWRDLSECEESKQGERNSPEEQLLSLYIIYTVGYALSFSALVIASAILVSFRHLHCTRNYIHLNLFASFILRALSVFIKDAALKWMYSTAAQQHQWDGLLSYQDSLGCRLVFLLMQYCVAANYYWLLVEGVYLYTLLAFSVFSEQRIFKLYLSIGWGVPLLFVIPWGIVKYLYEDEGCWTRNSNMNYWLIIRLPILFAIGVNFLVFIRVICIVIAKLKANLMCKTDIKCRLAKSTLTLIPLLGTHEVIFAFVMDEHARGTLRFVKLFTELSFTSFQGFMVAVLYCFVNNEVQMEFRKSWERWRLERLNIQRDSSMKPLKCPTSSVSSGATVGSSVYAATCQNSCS
Assay: cAMP assay of fermented GLP-1/linker/mTf constructs
Format: cell-based
Conditions: for activity compared with a construct without a linker: cAMP assay, vs pREX0505

[1] = cAMP assay of fermentation product, Tables 1, 3, 6, read-out: Activity

EC50 [1]	EC50 (running text of Example 2, read-out: EC50 / potency in cAMP assay)	Substance	activity compared with a construct without a linker
157 nM		pREX0507: nL GLP-1 (7-37; K34N) SS mTf	about the same as that for a construct without a linker
73.8 nM		pREX0509: nL GLP-1 (7-37; K34N) SSG mTf	about the same as that for a construct without a linker
	375 nM	pREX0518: nL GLP-1(7-37; K34N) PEA mTf	
85 nM		pREX0520: nL GLP-1(7-37; K34N) PEAPTD mTf	
